# In patent publication US11236106B2, “Cycloalkane-1,3-diamine derivative” (Daiichi Sankyo Company, Limited, priority 2018, dated 2022):
# Tests used:
# Assay in all cases: cells
# Conditions in all cases: Homo sapiens
# [1] = system: K562 cells
# [2] = system: MV-4-11 cells
# [3] = system: MOLM-13 cells
# [4] = K562, 72 h, read-out: GI50, cell growth inhibitory activity, K562, day 3
# [5] = K562, 168 h, read-out: GI50, cell growth inhibitory activity, K562, day 7
# [6] = MV4-11, 72 h, read-out: GI50, cell growth inhibitory activity, MV-4-11, day 3, MV-4-11 cells, cultured 3 days, assigned by order and values
# [7] = MV4-11, 168 h, read-out: GI50, cell growth inhibitory activity, MV-4-11, day 7, MV-4-11 cells, cultured 7 days, assigned by order and values
# [8] = MOLM-13, 72 h, read-out: GI50, cell growth inhibitory activity, MOLM-13, day 3, MOLM-13 cells, cultured 3 days, assigned by order and values
# [9] = MOLM-13, 168 h, read-out: GI50, cell growth inhibitory activity, MOLM-13, day 7, MOLM-13 cells, cultured 7 days, assigned by order and values
SMILES,"GI50 [1, 4]","GI50 [1, 5]","GI50 [2, 6]","GI50 [2, 7]","GI50 [3, 8]","GI50 [3, 9]"
"CNc1nc(N(C)[C@H]2C[C@@H](NCc3ccc(-c4cnn(S(C)(=O)=O)c4)cc3)C[C@H]2O)c2cc(CC(F)(F)F)sc2n1 [Example 62, (1R,2S,4R)-4[({4[1-(methanesulfonyl)-1H-pyrazol-4-yl]phenyl}methyl)amino]-2-{methyl[2-(methylamino)-6-(2,2,2-trifluoroethyl)thieno[2,3-d]pyrimidin-4-yl]amino}cyclopentan-1-ol hydrochloride]",2690 nM,2590 nM,113 nM,66.6 nM,1060 nM,199 nM
"CN(c1ncnc2sc(CC(F)(F)F)cc12)[C@@H]1CC[C@H](NCc2ccc(-c3cnc4c(c3)OCCO4)cc2)C1 [Example 63, (1R,3S)-N^3-{[4-(2,3-dihydro[l,4]dioxino[2,3-b]pyridin-7-yl)phenyl]methyl}-N^1-methyl-N^1-[6-(2,2,2-trifluoroethyl)thieno[2,3-d]pyrimidin-4-yl]cyclopentane-1,3-diamine hydrochloride]",2550 nM,1480 nM,682 nM,445 nM,1880 nM,1210 nM
"CNc1nc(N(C)[C@H]2C[C@@H](NCc3ccc(-c4cncc5c4ccn5S(C)(=O)=O)cc3)C[C@H]2O)c2cc(CC(F)(F)F)sc2n1 [Example 64, (1R,2S,4R)-4[({4-[1-(methanesulfonyl)-1H-pyrrolo[2,3-c]pyridin-4yl]phenyl}methyl)amino]-2-{methyl[2-(methylamino)-6-(2,2,2trifluoroethyl)thieno[2,3-d]pyrimidin-4-yl]amino}cyclopentan-1-ol hydrochloride]",2180 nM,1670 nM,56.3 nM,35.5 nM,358 nM,93.3 nM
"COc1cc(-c2ccc(CN[C@H]3C[C@@H](O)[C@@H](N(C)c4ncnc5sc(CC(F)(F)F)cc45)C3)cc2)cnc1Cl [Example 65, (1R,2S,4R)-4({[4-(6-chloro-5-methoxypyridin-3-yl)phenyl]methyl}amino)-2{methyl[6-(2,2,2-trifluoroethyl)thieno[2,3-d]pyrimidin-4-yl]amino}cyclopentan-1-ol hydrochloride]",2850 nM,2640 nM,88.2 nM,55.7 nM,1460 nM,143 nM
"CNC(=O)c1cccc(-c2ccc(CN[C@H]3CC[C@@H](N(C)c4ncnc5sc(CC(F)(F)F)cc45)C3)cc2)c1 [Example 66, N-methyl-4′-({[|(1S,3R)-3-{methyl[6-(2,2,2-trifluoroethyl)thieno[2,3-d]pyrimidin-4-yl]amino}cyclopentyl]amino}methyl)[1,1′-biphenyl]-3-carboxamide hydrochloride]",1610 nM,865 nM,286 nM,177 nM,978 nM,540 nM
"CNc1nc(N(C)[C@H]2C[C@@H](NCc3ccc(-c4cccc(S(=O)(=O)N(C)C)c4)cc3)C[C@H]2O)c2cc(CC(F)(F)F)sc2n1 [Example 69, 4′-({[(1R,3R,4S)-3-hydroxy-4-{methyl[2-(methylamino)-6-(2,2,2-trifluoroethyl)thieno[2,3-d]pyrimidin-4-yl]amino}cyclopentyl]amino}methyl)-N,N-dimethyl[1,1′-biphenyl]-3-sulfonamide hydrochloride]",1530 nM,1410 nM,38.2 nM,23.3 nM,630 nM,63.7 nM
"CN(c1ncnc2sc(CC(F)(F)F)cc12)[C@H]1C[C@@H](NCc2ccc(-c3cnc(Cl)c4cc[nH]c34)cc2)C[C@H]1O [Example 70, (1R,2S,4R)-4-({[4-(4-chloro-1H-pyrrolo[3,2-c]pyridin-7-yl)phenyl]methyl}amino)-2-{methyl[6-(2,2,2-trifluoroethyl)thieno[2,3-d]pyrimidin-4-yl]amino}cyclopentan-1-ol hydrochloride]",2570 nM,2530 nM,67.3 nM,35.1 nM,948 nM,111 nM
"CN(c1ncnc2sc(CC(F)(F)F)cc12)[C@H]1C[C@@H](NCc2ccc(-c3cccc(N(C)S(C)(=O)=O)c3)cc2)C[C@H]1O [Example 71, N-[4′-({[(1R,3R,4S)-3-hydroxy-4-{methyl[6-(2,2,2-trifluoroethyl)thieno[2,3-d]pyrimidin-4-yl]amino}cyclopentyl]amino}methyl)[1,1′-biphenyl]-3-yl]-N-methylmethanesulfonamide hydrochloride]",2800 nM,1770 nM,285 nM,157 nM,964 nM,469 nM
"CN(c1ncnc2sc(CC(F)(F)F)cc12)[C@H]1C[C@@H](NCc2ccc(-c3cncc4c3cnn4C)cc2)C[C@H]1O [Example 72, (1R,2S,4R)-4-({[4-(1-methyl-1H-pyrazolo[3,4-c]pyridin-4-yl)phenyl]methyl}amino)-2-{methyl[6-(2,2,2-trifluoroethyl)thieno[2,3-d]pyrimidin-4-yl]amino}cyclopentan-1-ol hydrochloride]",,1000 nM,,230 nM,,519 nM
"CNc1nc(N(C)[C@H]2C[C@@H](NCc3ccc(-c4cnc(OC)c(OC)c4)cc3)C[C@H]2O)c2cc(CC(F)(F)F)sc2n1 [Example 73, (1R,2S,4R)-4-({[4-(5,6-dimethoxypyridin-3-yl)phenyl]methyl}amino)-2-{methyl[2-(methylamino)-6-(2,2,2-trifluoroethyl)thieno[2,3-d]pyrimidin-4-yl]amino}cyclopentan-1-ol hydrochloride]",,723 nM,,< 19.5 nM,,38.9 nM
"COc1cc(-c2ccc(CN[C@H]3C[C@@H](O)[C@@H](N(C)c4ncnc5sc(CC(F)(F)F)cc45)C3)cc2F)cnc1F [Example 74, (1R,2S,4R)-4-({[3-fluoro-4-(6-fluoro-5-methoxypyridin-3-yl)phenyl]methyl}amino)-2-{methyl[6-(2,2,2-trifluoroethyl)thieno[2,3-d]pyrimidin-4-yl]amino}cyclopentan-1-ol hydrochloride]",,2550 nM,,45.5 nM,,122 nM
"CNc1nc(N(C)[C@H]2C[C@@H](NCc3ccc(-c4cc(F)cc(OC)c4)cc3)C[C@H]2O)c2cc(CC(F)(F)F)sc2n1 [Example 75, (1R,2S,4R)-4-{[(3′-fluoro-5′-methoxy[1,1′-biphenyl]-4-yl)methyl}amino}-2-{methyl[2-(methylamino)-6-(2,2,2-trifluoroethyl)thieno[2,3-d]pyrimidin-4-yl]amino}cyclopentan-1ol hydrochloride]",,1470 nM,,57.1 nM,,194 nM
"COc1cc(-c2ccc(CN[C@H]3C[C@@H](O)[C@@H](N(C)c4ncnc5sc(CC(F)(F)F)cc45)C3)c(F)c2)cnc1OC [Example 76, (1R,2S,4R)-4-({[4-(5,6-dimethoxypyridin-3-yl)-2-fluorophenyl]methyl}amino)-2-{methyl[6-(2,2,2-trifluoroethyl)thieno[2,3-d]pyrimidin-4-yl]amino}cyclopentan-1-ol hydrochloride]",4800 nM,2700 nM,183 nM,96.3 nM,1700 nM,268 nM

# Where a name gives a salt, the structure may show the parent alone. Read-outs that look alike come from different tables or passages of the source.
